Molecular target: T1, ^MBPFACT (MBP-TEV-SPT16 + His-TEV-SSRP1), untreated (human, phosphorylated as purified from insect cells; residues not printed | phosphorylated as purified from insect cells; residues not given)
T1 construct: SPT16, FACT subunit; SSRP1, FACT subunit; Immobilised on amylose resin through MBP on SPT16; also called full-length ^MBPFACT; source: Tnao38 insect cells (baculovirus), purified (HisTrap, HiTrap Q, SEC); not shown: MBP, N-terminal, kept
Assay: pull-down; amylose resin, MBP-tagged FACT (untreated, dephosphorylated, kinase-treated or truncated) as bait, CCAN or CCAN subcomplexes as preys; 3 µM each; 20 mM Hepes pH 6.8, 300 mM NaCl, 2.5% glycerol, 1 mM TCEP, 0.01% Tween; 4°C; SDS-PAGE, Coomassie
Settings: both partners purified

B1: CENP-TW^HFD (CENP-T^458-C/full-length CENP-W) (complex, human)
chain 1: AGLSHYVKLFSFYAKMPMERKALEMVEKCLDKYFQHLCDDLEVFAAHAGRKTVKPEDLELLMRRQGLVTDQVSLHVLVERHLPLEYRQLLIPCAYSGNSVFPAQ
chain 2: MALSTIVSQRKQIKRKAPRGFLKRVFKRKKPQLRLEKSGDLLVHLNCLLFVHRLAEESRTNACASKCRVINKEHVLAAAKVILKKSRG
notes: CENP-T, histone fold domain, residue 458 to the C-terminus; CENP-W; also called CENP-T^458-CW; source: recombinant, expressed and purified as previously reported
B1: binds.

Reference: publication PMC11912937 (The Journal of Cell Biology, 2025)
